How the values were obtained:
[1] = system: HT-29 cells; test: Live/Dead cytotoxicity assay, hybridoma supernatant; conditions: hybridoma supernatant or controls, 5 days
[2] = system: SW620 cells; test: as above; conditions: hybridoma supernatant or controls, 5 days

## sodium azide
[1]
  Cytotoxicity (%) HT-29 Average: 61%
[2]
  Cytotoxicity (%) SW620 Average: 68%
